Results on 9 compounds are retold here after US20090131503A1, “3,5 - SUBSTITUTED INDOLE COMPOUNDS HAVING NOS AND NOREPINEPHRINE REUPTAKE INHIBITORY ACTIVITY” (priority 2007, published 2009).

By IC50 is commonly meant the concentration that gives 50% inhibition.

Counter-ions that a name gives are not always drawn.

In the first assay the target is T1, Nitric oxide synthase (neuronal, human recombinant) nNOS (Homo sapiens, UniProt P29475).
T1 construct: purchased Axxora LLC ALX-201-068
Kind of assay: nNOS (human) enzyme assay, [3H]-L-arginine to L-citrulline conversion. The assay is classed as biochemical. The following applies: Table 3.
As to `CNC1CCCC(c2c[nH]c3ccc(NC(=N)c4cccs4)cc23)C1` (racemic) [(±)-8, N-(3-(3-(methylamino)cyclohexyl)-1H-indol-5-yl)thiophene-2-carboximidamide], the IC50 amounted to 309 nM.
Take `CNC1CCCC(c2c[nH]c3ccc(NC(=N)c4cccs4)cc23)C1` (single isomer, unassigned) [(±)-7, N-(3-(-3-(Methylamino)cyclohexyl)-1H-indol-5-yl)thiophene-2-carboximidamide]: the IC50 was 490 nM.
With `CNC1CCCC(c2c[nH]c3ccc(NC(=N)c4cccs4)cc23)C1` (single isomer, unassigned) [Compound 7b, N-(3-(3-(Methylamino)cyclohexyl)-1H-indol-5-yl)thiophene-2-carboximidamide dihydrochloride [(−)-cis-enantiomer]], the IC50 was found to be 1370 nM.
Consider `CNC1CCCC(c2c[nH]c3ccc(NC(=N)c4cccs4)cc23)C1` (single isomer, unassigned) [Compound 7a, N-(3-(3-(Methylamino)cyclohexyl)-1H-indol-5-yl)thiophene-2-carboximidamide dihydrochloride [(+)-cis-enantiomer]], for which the IC50 came out at 570 nM.

Another assay has as its target T2, Nitric oxide synthase (endothelial, human recombinant) eNOS (Homo sapiens, UniProt P29474).
T2 construct: purchased Axxora LLC ALX-201-070
Put plainly: eNOS (human) enzyme assay, [3H]-L-arginine to L-citrulline conversion. The assay is classed as biochemical. The following applies: Table 2; compounds tested as hydrochloride salts.
As to `CCNC1CCC(c2c[nH]c3ccc(NC(=N)c4cccs4)cc23)CC1` (mixture of isomers) [Compound 5, N-(3-(4-(ethylamino)cyclohexyl)-1H-indol-5-yl)thiophene-2-carboximidamide], the IC50 was 40.8 µM.
Consider `CCN[C@H]1CC[C@H](c2c[nH]c3ccc(NC(=N)c4cccs4)cc32)CC1` (single isomer, unassigned) [Compound 5a, trans-N-(3-(4-(Ethylamino)cyclohexyl)-1H-indol-5-yl)thiophene-2-carboximidamide], for which the IC50 amounted to 216 µM.
On the same count and under the same terms, under `CCN[C@H]1CC[C@@H](c2c[nH]c3ccc(NC(=N)c4cccs4)cc32)CC1` (single isomer, unassigned) [Compound 5b, cis-N-(3-(4-(Ethylamino)cyclohexyl)-1H-indol-5-yl) thiophene-2-carboximidamide] stands 17.8 µM; under `CNC1CCC(c2c[nH]c3ccc(NC(=N)c4cccs4)cc23)CC1` (mixture of isomers) [Compound 1, N-(3-(4-(methylamino)cyclohexyl)-1H-indol-5-yl)thiophene-2-carboximidamide], 26.9 µM.
With `CN[C@H]1CC[C@H](c2c[nH]c3ccc(NC(=N)c4cccs4)cc32)CC1` [Compound 1b, N-(3-(4-(Methylamino)cyclohexyl)-1H-indol-5-yl)thiophene-2-carboximidamide], the IC50 was 6.24 µM.
